Earlier results, collected in patent US20060019934A1, “Anti-HIV-1 activity of betulinol derivatives” (priority 2004, published 2006).

Conditions: Sun et al. 1998; cited from earlier work

| SMILES | therapeutic index |
| --- | --- |
| C=C(C)[C@@H]1CC[C@]2(COC(C)=O)CC[C@]3(C)[C@H](CC[C@@H]4[C@@]5(C)CC[C@H](OC(C)=O)C(C)(C)[C@@H]5CC[C@]43C)[C@@H]12 [betulin diacetate] | low |
| C=C(C)[C@@H]1CC[C@]2(C(=O)O)CC[C@]3(C)[C@H](CC[C@@H]4[C@@]5(C)CCC(=O)C(C)(C)[C@@H]5CC[C@]43C)[C@@H]12 [betulonic acid] | low |
